# Results from PubChem BioAssay AID2107 (National Center for Advancing Translational Sciences (NCATS), 2009).
# Sequences of proteins named here, by UniProt entry; tags and fusion partners are left off. Residues count along the entry.
# UniProt P06280, 32-429 limits assumed: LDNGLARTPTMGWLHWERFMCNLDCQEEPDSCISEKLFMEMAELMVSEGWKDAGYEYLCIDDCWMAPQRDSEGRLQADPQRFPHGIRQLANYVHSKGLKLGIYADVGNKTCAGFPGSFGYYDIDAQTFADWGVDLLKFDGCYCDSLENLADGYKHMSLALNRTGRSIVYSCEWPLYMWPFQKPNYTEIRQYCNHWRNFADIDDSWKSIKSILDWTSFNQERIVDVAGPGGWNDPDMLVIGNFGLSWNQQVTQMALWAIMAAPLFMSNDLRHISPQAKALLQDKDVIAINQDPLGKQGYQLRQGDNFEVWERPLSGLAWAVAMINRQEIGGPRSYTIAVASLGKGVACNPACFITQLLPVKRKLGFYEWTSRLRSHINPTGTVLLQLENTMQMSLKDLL
# This is a selection; strong and weak results do not stand in their true shares. Some salts or complexes appear as unconnected parts, following the source record. The source made the active and inactive calls. Calls follow the shape of the dose curve; as a rule, active = well fitted inhibition curve with a large enough effect; inconclusive = small, poorly fitted or top-dose-only effect, or effect the other way; inactive = flat fitted curve, though single readings scatter.
# Target: Alpha-galactosidase A (Homo sapiens) (UniProt P06280)
# Test: qHTS Assay for Inhibitors and Activators of Human alpha-Galactosidase From Spleen Homogenate;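 also: 0% = enzyme with vehicle and -100% = no enzyme basal signal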
# Details: 4MU-alpha-Gal fluorescence, 40 min; at 80 µM (top of the series)
# Source text: NIH Chemical Genomics Center [NCGC] NIH Molecular Libraries Probe Production Centers Network [MLPCN] MLPCN Grant: R03 MH084842-01 Assay Submitter (PI): Wei Zheng NCGC Assay Overview: Alpha-galactosidase is a homodimeric glycoprotein that hydrolyzes the terminal alpha-galactosyl moieties from glycolipids and glycoproteins. Deficiency of this enzyme results in Fabry Disease with progressive accumulation of globotriaosylceramide and other glycosphingolipids in vascular endothelial cells that causes renal failure, myocardial infarction and stroke, and premature death in patients. It has been reported that the improper folding and trafficking of alpha-galactosidase resulting from genetic mutations may account for a significant number of Fabry patients. […] We optimized this alpha-galactosidase assay in 1536-well plate format for identification of novel small molecule inhibitors or activators with structures other than the sugar analogs in order to develop new pharmacological chaperones. In particular, this assay is directed towards discovering compounds active in more natural setting, tissue homogenate, that may have been missed by screens of the purified enzyme under more stringent conditions.
# NCGC Assay Protocol Summary: This is a fluorogenic enzyme assay with 4-methylumbelliferyl-alpha-D-galactopyranoside as the substrate and human spleen homogenate containing alpha-galactosidase as the enzyme preparation. Upon hydrolysis of this fluorogenic substrate, the resulting product, 4-methylumbelliferone (which excites at 365 nm and emits at 440 nm) can be detected by a fluorescence plate reader. Data were normalized to the controls for basal activity (without enzyme) and 100% activity (with enzyme). The AC50 values were determined from concentration-response data modeled with the standard Hill equation. Assay buffer: 50 mM citric acid (titrated with potassium phosphate to pH 5.0), 0.01% Tween-20 (pH 5.0 is an optimal condition for this enzyme assay) 1536-well assay protocol for the alpha-galactosidase from human spleen homogenate: (1) Add 2 ul/well spleen homogenate (1 ug) (2) Add 23 nL compounds in DMSO solution. The final titration was 0.5 nM to 58 uM. (3) Add 2 ul of substrate (1 mM final) (4) Incubate at 37C for 40 min (5) Add 2 ul stop solution (1M NaOH and 1M Glycine mixture, pH 10) (6) Detect the assay plate in a ViewLux plate reader (PerkinElmer) with Ex=365 nm and Em=440nm. Keywords: Alpha-galactosidase, Fabry Disease, pharmacological chaperone, chaperone therapy, high throughput screening, alpha- galactosidase inhibitor, MLSMR, MLSCN, NIH Roadmap, qHTS and NCGC
row,SMILES,"activity change, negative = inhibition"
1,COc1ccc(C(=O)NCC2(N3CCCCC3)CCCCC2)c(OC)c1OC,inactive: 3.39%
2,O=C(NCC1(N2CCOCC2)CCCCC1)c1cc2ccccc2o1,inactive: -12.3%
3,CCOC(=O)N1CCC(Nc2ccc(OC)cc2)CC1,inactive: -6.27%
4,N#CC1(Nc2ccccc2)CCN(Cc2ccccc2)CC1,inactive: -25.6%
5,O=C(OC1CN2CCC1CC2)C1c2ccccc2Oc2ccccc21 (stereo unspecified),inactive: 5.33%
6,CCOc1ccc(C)cc1CN(CCCl)CCCl,inactive: -3.62%
7,COc1ccc(NC2CCN(CCc3ccccc3)CC2)c(OC)c1,inactive: -8.37%
8,Cc1ccc(OCC(C)C)c(CN(CCCl)CCCl)c1,inactive: -0.173%
9,O=C(NCC1(N2CCCCC2)CCCCC1)c1cccc([N+](=O)[O-])c1,inactive: -7.22%
10,N#CC1(Nc2ccccc2)CCN(CCc2ccccc2)CC1,inactive: 0.232%
11,O=[N+]([O-])c1cc([N+](=O)[O-])c(NCC2CCS(=O)(=O)C2)c([N+](=O)[O-])c1 (stereo unspecified),inactive: 0.947%
12,CN1CCN(CCOC(=O)C(O)(c2ccccc2)c2ccccc2)CC1,inactive: 3.52%
13,COc1ccc(NC2CCN(C(=O)OC(C)(C)C)CC2)cc1,inactive: -8.81%
14,O=C(NCC1(N2CCOCC2)CCCCC1)c1cc(=O)[nH]c2ccccc12,inactive: -3.21%
15,CN(C)c1cccc(C(=O)NCC2(N3CCCCC3)CCCCC2)c1,inactive: -13.3%
16,COc1ccc(CN(CCCl)CCCl)cc1Cl,inactive: 2.5%
17,CC(C)c1ccc(NC2CCN(C(=O)OC(C)(C)C)CC2)cc1,inactive: 6.79%
18,CCOP(=O)(Cl)Cl,inactive: 0.602%

row,SMILES,"activity change, negative = inhibition"
1,COc1ccc2c(c1O)-c1c(O)c(OC)cc3c1[C@H](C2)[N+](C)(C)CC3.O=[N+]([O-])c1cc([N+](=O)[O-])c([O-])c([N+](=O)[O-])c1[O-],inactive: 1.51%
2,O=C(OC1CN2CCC1CC2)c1ccc([N+](=O)[O-])cc1 (stereo unspecified),inactive: -3.38%
3,COc1ccc(C(=O)NCC2(N3CCOCC3)CCCCC2)cc1OC,inactive: 0.953%
4,N/C(=N\O)c1c(N)no[n+]1[O-],inactive: 2.89%
5,O=C(O)c1cccc(Nc2c([N+](=O)[O-])cc([N+](=O)[O-])cc2[N+](=O)[O-])c1,inactive: -4.56%
6,O=C(OC1CN2CCC1CC2)C1c2ccccc2C=Cc2ccccc21 (stereo unspecified),inactive: 4.77%
7,N#Cc1ccc(C(=O)NCC2(N3CCCCC3)CCCCC2)cc1,inactive: -5.69%
8,CCOC(=O)C(CC)C1=NC(C)(C)Cc2ccccc21.O=[N+]([O-])c1cc([N+](=O)[O-])c(O)c([N+](=O)[O-])c1 (stereo unspecified),inactive: 2.2%
9,c1ccc(CN2CCC(Nc3ccccc3)CC2)cc1,inactive: -7.91%
10,ClCCOP(OCCCl)OCCCl,inactive: -4.86%
11,Fc1ccccc1NC1CCN(Cc2ccccc2)CC1,inactive: -0.957%
12,CCN1CCC(Nc2cccc(F)c2)CC1,inactive: 12.5%
13,CN(C)c1ccc(C(=O)NCC2(N3CCCCC3)CCCCC2)cc1,inactive: 6.56%
14,CCOc1ncccc1C(=O)NCC1(N2CCOCC2)CCCCC1,inactive: -8.4%
15,CC(C)(C)OC(=O)N1CCC(Nc2ccccc2)CC1,inactive: -5.21%
16,CCC(CO)(C(=O)OC1CN2CCC1CC2)c1ccccc1 (stereo unspecified),inactive: -9.76%
17,COc1cc(OC)cc(C(=O)NCC2(N3CCOCC3)CCCCC2)c1,inactive: -5.48%
18,CCCOc1ccc(C)cc1CN(CCCl)CCCl,inactive: 5.2%
